Consider one substance from US12692290B2, “Modulators of tight junction permeability” (The University of Bath, priority 2020, dated 2026).

The nature of this data set: In vivo gentamicin transport after intraluminal injection (ILI) into rat jejunum. The settings on record: 10 mg/kg gentamicin without PIP peptide. The method, then: Male Wistar rats weighing 250-300 g were used in in vivo experiments. Rats were bred in house at the University of Bath. Rats were kept on a 12/12-hour light dark cycle. Experiments were conducted at the midpoint of the light cycle±3 hours. Rats had ad lib access to food and water throughout housing up to the beginning of experimental procedures. Following experimental procedures rats were euthanised by exposure to increasing concentration of CO2.
Rats were anaethetised using 5% inhaled isoflurane. Once anaesthesia was achieved, rats were transferred to a nose cone to maintain anaesthesia. A 2-cm incision was used to gain access to the abdominal cavity. […]
Blood samples (100 μL) were collected from either the tail vein or the portal vein into 1.5 mL Eppendorf tubes and allowed to clot at room temperature for 20 min. […] Samples were centrifuged at 2000×g for 10 min, with the supernatant being collected and analysed by LCMS/MS.
Rats were administered 10 mg/kg gentamicin by ILI with or without 20 mM of a PIP250 series peptide. Blood samples collected from 15 to 90 min post-IL were analysed for gentamicin. […] Blood samples were collected and analysed as previously described.
Samples were analysed using an Agilent 6545 quadrupole time-of-flight LC/MS instrument. 10 μL of gentamicin samples were injected into a C18 reversed-phase HPLC column and detected at 202 nm. […]

For the substance Gentamicin, the “gentamicin serum levels after ILI of gentamicin alone” value is reported as “did not results in detectable serum levels”.
